# Reported intrinsic clearance values for industrial, environmental and drug-like chemicals

Intrinsic clearance (human, µL/min per 10^6 hepatocytes): higher is faster turnover, and 0 stands for none detected. Cells with "n/a" have no entry in this list.

compound | name | Clint (µL/min/10^6 cells)
CC(=O)OC/C=C(\C)CCC=C(C)C | Geranyl acetate | 823
O=C(c1ccccc1)c1ccc(O)cc1O | 2,4-dihydroxybenzophenone | 39.3
O=C1OC[C@H](Cc2cccc(O)c2)[C@H]1Cc1cccc(O)c1 | Enterolactone | 139
CC1=C(Br)C(=O)C(Br)=C/C1=C(\c1ccccc1S(=O)(=O)[O-])c1cc(Br)c(O)c(Br)c1C.[Na+] | Bromocresol green sodium salt | 0
CCc1occc(=O)c1O | 2-ethyl-3-hydroxy-4h-pyran-4-one | 81
CCOC(=O)C(C)(C)Oc1ccc(Cl)cc1 | Clofibrate | 868
Clc1ccc(COC(Cn2ccnc2)c2ccc(Cl)cc2Cl)cc1.O=[N+]([O-])O (configuration not stated) | Econazole nitrate | 6.02
Nc1ccc(C(=O)O)cc1 | 4-aminobenzoic acid | 0
COc1ccccc1OCCNCC(O)COc1cccc2[nH]c3ccccc3c12 (configuration not stated) | Carvedilol | 50.9
CNCCCC12CCC(c3ccccc31)c1ccccc12 | Maprotiline | 0.723
COc1ccc(-c2coc3cc(O)cc(O)c3c2=O)cc1 | Biochanin a | 230
CCOc1ccc2c(c1)C(C)=CC(C)(C)N2 | Ethoxyquin | 15.16
O=c1cc(-c2ccc(O)cc2)oc2cc(O)cc(O)c12 | Apigenin | 138
COc1cccc([C@H](O)C2CCN(CCc3ccc(F)cc3)CC2)c1OC | Volinanserin | 5.464
Nc1nc(Cl)nc2c1ncn2[C@H]1C[C@H](O)[C@@H](CO)O1 | 2-chloro-2'-deoxyadenosine | 0
CCOC(=O)C1CC(=O)C(=C(O)C2CC2)C(=O)C1 (configuration not stated) | Trinexapac-ethyl | 3.82
C=C(C)[C@@H]1CCC2=CC(=O)C[C@@H](C)[C@]2(C)C1 | Nootkatone | 172
C=C1C[C@]23C[C@@]1(O)CC[C@H]2[C@@]12C=C[C@H](O)[C@@](C)(C(=O)O1)[C@H]2[C@@H]3C(=O)O | Gibberellic_acid | 0
c1ccc(Nc2cccc3ccccc23)cc1 | N-phenyl-1-naphthylamine | 98.2
CC(=O)OCCOCCOCCOC(C)=O | Triethylene glycol diacetate | 206
Cc1ncc(CO)c(CO)c1O | Pyridoxine | 0
CCCCC(C)C(=O)O (configuration not stated) |  2-Methylhexanoic acid  | 3.95
Cc1ccc2ncccc2c1 | 6-methylquinoline | 134
Oc1ccccc1 | Phenol | 5.496
Cc1cc(NC(=O)C(=O)O)cc(C)c1Oc1ccc(O)c2c1CCC2 | n/a | 0
CCNc1ccccc1 | N-ethylaniline | 21.8
CC(C)C(=O)Nc1ccc([N+](=O)[O-])c(C(F)(F)F)c1 | Flutamide | 30.38
O=c1n(CC2CO2)c(=O)n(CC2CO2)c(=O)n1CC1CO1 (configuration not stated) | Triglycidyl isocyanurate | 180
Nc1nc(N)c2nc(-c3ccccc3)c(N)nc2n1 | Triamterene | 0
CN(C)c1ccc(C(=C2C=CC(=[N+](C)C)C=C2)c2ccc(N(C)C)cc2)cc1.[Cl-] | Hexamethyl-p-rosaniline chloride | 8.322
Oc1ccc2ccccc2c1N=Nc1ccccc1 | C.i. solvent yellow 14 | 0
CCC(C)N(C)C(=O)c1cc2ccccc2c(-c2ccccc2Cl)n1 (configuration not stated) | n/a | 42.12
C=C(C)C(=O)OCCC(F)(F)C(F)(F)C(F)(F)C(F)(F)C(F)(F)C(F)(F)F | 3,3,4,4,5,5,6,6,7,7,8,8,8-tridecafluorooctyl methacrylate | 196.9
CCCCCCCCCC | Decane | 0.1533
O=c1ccc2ccccc2o1 | Coumarin | 0
Cn1cnc([N+](=O)[O-])c1Sc1ncnc2nc[nH]c12 | Azathioprine | 0

2 of these entries, quoted again:

| compound | name | Clint (µL/min/10^6 cells) |
|---|---|---|
| O=c1n(CC2CO2)c(=O)n(CC2CO2)c(=O)n1CC1CO1 (configuration not stated) | Triglycidyl isocyanurate | 180 |
| C=C1C[C@]23C[C@@]1(O)CC[C@H]2[C@@]12C=C[C@H](O)[C@@](C)(C(=O)O1)[C@H]2[C@@H]3C(=O)O | Gibberellic_acid | 0 |

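The OPERA project collected these measurements from public sources as training and test data for property models. A listed value is a point estimate from one report or more. Conditions of the individual experiments are not part of the data. Where a salt, mixture or single isomer is drawn, the source does not say that exactly this form was tested. Some upstream entries may be estimates or bounds without being marked so.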

Data: OPERA 2.9 data sets, kmansouri/OPERA on GitHub.